{"source": "patent US20250087329A1", "about": "“PERSONALISED RECOMMENDED DAILY INTAKE FOR NUTRIENTS BASED ON INDIVIDUAL GENETIC RISK SCORES” (SOCIETE DES PRODUITS NESTLE S.A., priority 2021, published 2025)", "origin": "cited, not measured here", "details": "Person; daily intake; cited from earlier work"}
{"substance": "Vitamin D", "values": [{"measurement": "UL (tolerable upper intake level)", "result": 100, "unit": "µg"}]}
